## Apparent affinities of Ab-14 variants for a coronavirus HR2 peptide

Target: peptide PDVDLGDISGINAS, taken from heptad repeat 2 (HR2) of SARS-CoV-2 spike.

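The starting antibody came from a phage panning campaign against this peptide. The library (AAYL49) carries one to three amino acid substitutions per variant, with no insertions or deletions. The assay is AlphaSeq: two haploid yeast populations carry antibody and antigen on their surface. Binding brings cells together so that they mate, and sequencing counts the barcode pairs among the diploids. Scores were corrected for input abundance and mapped to Kd with protein pairs of known affinity run in the same pool. There are three technical replicates.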

Each scFv is VH, a (GGGGS)3 linker, VL, as in the parent Ab-14, and differs from it in the CDRs of the heavy chain only.
VH: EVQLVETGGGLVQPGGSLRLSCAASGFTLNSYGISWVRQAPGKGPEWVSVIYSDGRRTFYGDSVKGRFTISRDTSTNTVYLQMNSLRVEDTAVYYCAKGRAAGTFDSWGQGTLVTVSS
VL: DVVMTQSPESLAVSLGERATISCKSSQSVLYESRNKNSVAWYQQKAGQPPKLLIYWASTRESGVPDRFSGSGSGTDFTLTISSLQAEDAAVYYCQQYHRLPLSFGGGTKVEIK

Sequences are complete VH domains.
Affinities are written as log10 Kd with Kd in nM; a lower number is a better binder.
"n.d." marks a missing value. The strain was present, yet no cells mated with the target were sequenced in that replicate, which points to weak or no binding.
Parent in this assay: reference entry 0.65, copy in this library 4.11 (one replicate of three).
Three control strains display no target. For library AAYL49, 15% of the pairings with them gave a signal, with a median of 4.06 and one signal in twenty below 2.83, so weak values seen in few replicates may be background. Also given: how often the same scFv was detected with the empty control strains, with their mean in brackets.

| VH | log10 Kd (nM) by replicate | signal with controls |
|---|---|---|
| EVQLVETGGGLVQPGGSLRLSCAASGFTLTSYGISWVRQAPGKGPEWVSVIYSDGRNTFYGDSVKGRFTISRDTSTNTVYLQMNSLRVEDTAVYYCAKGRAAGTFDSWGQGTLVTVSS | n.d. / 2.30 / 3.07 | 1 of 9 (3.44) |
| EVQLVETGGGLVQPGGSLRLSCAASGFGLNSYGISWVRQAPGKGPEWVSVIYSWGRRTFYGDSSKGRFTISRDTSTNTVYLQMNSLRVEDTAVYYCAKGRAAGTFDSWGQGTLVTVSS | 4.85 / n.d. / n.d. | 0 of 9 |
| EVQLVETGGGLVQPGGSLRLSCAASGFTLNHYGISWVRQAPGKGPEWVSVPYSDGRGTFYGDSVKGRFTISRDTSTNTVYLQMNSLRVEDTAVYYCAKGRAAGTFDSWGQGTLVTVSS | n.d. / 4.08 / n.d. | 0 of 9 |
| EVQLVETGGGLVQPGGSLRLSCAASGFTLNSYGIRWVRQAPGKGPEWVSVIYSDGRRTFYGDMVKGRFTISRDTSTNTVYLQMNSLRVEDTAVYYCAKGRSAGTFDSWGQGTLVTVSS | n.d. / n.d. / n.d. | 1 of 9 (2.34) |
| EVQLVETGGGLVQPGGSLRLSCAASGFTLNSYGISWVRQAPGKGPEWVSVFGSDGHRTFYGDSVKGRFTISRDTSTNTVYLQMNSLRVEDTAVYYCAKGRAAGTFDSWGQGTLVTVSS | n.d. / n.d. / n.d. | 0 of 9 |
| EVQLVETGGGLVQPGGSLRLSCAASGFTLNSYGISWVRQAPGKGPEWVSVIYSDGSQTFYGDSVYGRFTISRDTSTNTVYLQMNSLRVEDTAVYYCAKGRAAGTFDSWGQGTLVTVSS | n.d. / n.d. / n.d. | 0 of 9 |
| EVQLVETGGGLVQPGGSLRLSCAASKFTLNSYGISWVRQAPGKGPEWVSVIYQDGRRTFYGDSVKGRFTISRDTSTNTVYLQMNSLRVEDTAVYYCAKGRAAGTFDSWGQGTLVTVSS | n.d. / n.d. / n.d. | 1 of 9 (4.89) |
| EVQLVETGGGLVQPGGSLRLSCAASGFTLNSYGISWVRQAPGKGPEWVSVIYSDGRRVFYGDRVKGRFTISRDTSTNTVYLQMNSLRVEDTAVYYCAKGDAAGTFDSWGQGTLVTVSS | 0.53 / 0.68 / 0.58 | 4 of 9 (4.50) |
| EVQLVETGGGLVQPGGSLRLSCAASGFQLNSYGISWVRQAPGKGPEWVSVIYSDGRRTFYGDSVKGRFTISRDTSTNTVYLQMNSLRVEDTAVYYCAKYWAAGTFDSWGQGTLVTVSS | 3.03 / 2.63 / 2.59 | 0 of 9 |
| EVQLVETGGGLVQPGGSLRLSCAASGFYLNSYGISWVRQAPGKGPEWVSVIYSDGRRTRYGDSVKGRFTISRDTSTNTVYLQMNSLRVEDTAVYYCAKGRAAGTFCSWGQGTLVTVSS | 4.58 / n.d. / n.d. | 0 of 9 |
| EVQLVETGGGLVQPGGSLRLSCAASGFTANSYGISWVRQAPGKGPEWVSVHYSDGRRTFFGDSVKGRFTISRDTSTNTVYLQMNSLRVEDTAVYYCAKGRAAGTFDSWGQGTLVTVSS | n.d. / n.d. / n.d. | 1 of 9 (3.26) |
| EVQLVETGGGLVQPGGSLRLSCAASGFTLNSYGISWVRQAPGKGPEWVSVIYSFGRRTFYGDSVKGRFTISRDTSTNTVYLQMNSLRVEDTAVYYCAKGIAAGTFDSWGQGTLVTVSS | n.d. / n.d. / n.d. | 0 of 9 |
| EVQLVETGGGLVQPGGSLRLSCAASGFTLCSYGISWVRQAPGKGPEWVSVIYSDGRMTFYGDSVKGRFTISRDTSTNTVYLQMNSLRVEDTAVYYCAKGRAACTFDSWGQGTLVTVSS | n.d. / n.d. / n.d. | 2 of 9 (4.35) |
| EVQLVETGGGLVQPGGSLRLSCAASDFTRNSYGISWVRQAPGKGPEWVSVIYSDGRRTFYGDSVKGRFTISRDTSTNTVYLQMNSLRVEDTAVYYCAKGRAAGWFDSWGQGTLVTVSS | 3.12 / n.d. / n.d. | 1 of 9 (4.35) |
| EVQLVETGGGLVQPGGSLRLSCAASHMTLNSYGISWVRQAPGKGPEWVSVIYSDGRYTFYGDSVKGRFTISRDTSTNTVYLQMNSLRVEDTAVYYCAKGRAAGTFDSWGQGTLVTVSS | n.d. / n.d. / 4.05 | 3 of 9 (4.11) |
| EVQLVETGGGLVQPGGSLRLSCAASGFTLNSYGISWVRQAPGKGPEWVSVIWSDGRRTFNGDSVKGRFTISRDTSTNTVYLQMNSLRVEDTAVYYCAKGRAAGTFDSWGQGTLVTVSS | n.d. / 5.09 / n.d. | 2 of 9 (3.49) |
| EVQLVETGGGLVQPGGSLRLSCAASGFTLNSYGISWVRQAPGKGPEWVSVIYSDGRRPFYGDSQKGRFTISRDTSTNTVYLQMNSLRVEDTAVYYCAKGRAAGTFDSWGQGTLVTVSS | n.d. / n.d. / n.d. | 4 of 9 (4.42) |
| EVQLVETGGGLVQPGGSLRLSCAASGFTLNSYGISWVRQAPGKGPEWVSVIKSDGYRTFYGFSVKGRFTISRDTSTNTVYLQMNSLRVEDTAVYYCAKGRAAGTFDSWGQGTLVTVSS | n.d. / n.d. / n.d. | 2 of 9 (4.33) |
| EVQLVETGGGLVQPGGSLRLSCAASGFTLNSYGTSWVRQAPGKGPEWVSVIYSDGRRTFYGTSVKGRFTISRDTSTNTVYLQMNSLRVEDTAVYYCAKGRAAGTFDLWGQGTLVTVSS | n.d. / 3.34 / n.d. | 0 of 9 |
| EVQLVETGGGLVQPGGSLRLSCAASWFTLNSYGISWVRQAPGKGPEWVSVIYSVMRRTFYGDSVKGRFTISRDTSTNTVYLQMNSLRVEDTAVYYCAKGRAAGTFDSWGQGTLVTVSS | n.d. / 4.74 / 5.24 | 4 of 9 (4.36) |
| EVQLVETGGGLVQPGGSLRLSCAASGFTLQSYGISWVRQAPGKGPEWVSVIYSDGRRTFYGDSVKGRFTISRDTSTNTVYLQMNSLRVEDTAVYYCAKGTAAGTRDSWGQGTLVTVSS | n.d. / n.d. / n.d. | 1 of 9 (3.01) |
| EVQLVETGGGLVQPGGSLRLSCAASSFTLNSYGISWVRQAPGKGPEWVSVIYSDGRRTFYGDSTKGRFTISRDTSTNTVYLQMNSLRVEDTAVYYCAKGRAAGTRDSWGQGTLVTVSS | 3.21 / n.d. / n.d. | 1 of 9 (4.49) |

The first 2 entries again:

{"VH": "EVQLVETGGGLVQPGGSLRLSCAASGFTLTSYGISWVRQAPGKGPEWVSVIYSDGRNTFYGDSVKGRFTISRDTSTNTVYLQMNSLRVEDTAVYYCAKGRAAGTFDSWGQGTLVTVSS", "log10 Kd (nM) by replicate": "n.d. / 2.30 / 3.07", "signal with controls": "1 of 9 (3.44)"}
{"VH": "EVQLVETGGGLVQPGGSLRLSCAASGFGLNSYGISWVRQAPGKGPEWVSVIYSWGRRTFYGDSSKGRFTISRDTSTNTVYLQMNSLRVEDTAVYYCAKGRAAGTFDSWGQGTLVTVSS", "log10 Kd (nM) by replicate": "4.85 / n.d. / n.d.", "signal with controls": "0 of 9"}

Values reported by Engelhart et al. 2022, doi:10.1038/s41597-022-01779-4 (FLAb copy).